Values quoted from earlier work in article PMC9916778 (International Journal of Molecular Sciences, 2023).

Tested on: Caco-2/TC7 cells
Settings: cited from earlier work

For [Au(tpy)Cl(2-TU)], the “Cells in G2/M arrest, Caco-2/TC7” value is given as “around 30%”.
